Drawing on published antibiotic growth screens (doi:10.1038/s41589-023-01349-8), this text covers relative growth for 91 compounds.

The list shows a part of the results.

The test system of the assay is A. baumannii ATCC 17978. Description: relative growth (fraction of control); higher = less inhibition. Conditions: 50 µM.
`C[C@H](CO)N1C[C@H](C)[C@H](CN(C)C(=O)Cc2ccncc2)Oc2cc(C3=CCCC3)ccc2S1(=O)=O` showed a relative growth of 0.86. The compound `CCc1nc2ccccc2nc1CC` gave a relative growth of 0.953. `Nc1ccccc1C(=O)NCCN1CCNC1=O` returned a relative growth of 1.03.

As to `O=C(C[C@H]1C=C[C@H](NS(=O)(=O)c2ccc(F)cc2)[C@H](CO)O1)NCCN1CCCCC1`, the relative growth was 0.924.

The compound `COc1ccc(CNc2nc(N3CCC[C@H]3CO)ncc2C(=O)NCc2ncccn2)cc1Cl` gave a relative growth of 1.1. The same measure for `CCNc1nc(SCC(N)=O)nc(N2CCOCC2)n1`: 1.01; for `COc1ccc(S(=O)(=O)N2C[C@H](O)COC[C@H]3O[C@H](CC(=O)NCc4ccc(Cl)c(Cl)c4)CC[C@@H]32)cc1`: 0.979.

`C[C@@H]1CN([C@H](C)CO)S(=O)(=O)c2ccc(-c3ccncc3)cc2O[C@H]1CN(C)C(=O)c1ccc2c(c1)OCO2` came in with a relative growth of 0.97.

Take `COCCNC(=O)C[C@@H]1CC[C@@H](NS(=O)(=O)c2ccc(C)cc2)[C@H](CO)O1`: the relative growth amounted to 0.95. Regarding `CCOC(=O)CSc1nc(=O)cc(C)[nH]1`, the relative growth turned out to be 0.952. In turn, `Cc1cc(C)n(C)c(=O)c1C(=O)O` had a relative growth of 0.903. The same measure for `OC[C@@H](O)CN1CCN(c2ccccc2)CC1`: 0.898; for `C[C@H]1CN([C@@H](C)CO)C(=O)c2cc(C#Cc3ccccc3F)cnc2O[C@H]1CN(C)S(=O)(=O)c1ccccc1`: 0.96.

`C[C@@H](O)C#Cc1ccc2c(c1)O[C@@H](CN(C)C(=O)Cc1ccccn1)[C@@H](C)CN([C@@H](C)CO)S2(=O)=O` registered a relative growth of 0.983. The compound `Cc1ccc(S(=O)(=O)N2C[C@H](O)COC[C@H]3O[C@@H](CC(=O)NCCN4CCCCC4)CC[C@@H]32)cc1` showed a relative growth of 1.02. Consider `Cc1ccc(S[C@]2(C(=O)NCCCN(C)C)CC(=O)N(Cc3ccccc3C(F)(F)F)[C@@H]2c2ccc(CO)cc2I)cc1`, for which the relative growth was determined as 0.875. In turn, `NNC(=O)c1ccncc1` came in with a relative growth of 0.885. The compound `O=C(C[C@@H]1CC[C@@H](NC(=O)CN2CCOCC2)[C@H](CO)O1)NCCc1ccncc1` had a relative growth of 1.01. `O=C(Nc1ccc2c(c1)[C@H]1C[C@H](CC(=O)N3CCc4ccccc4C3)O[C@@H](CO)[C@H]1O2)C1CCOCC1`: the relative growth is 1.01. The value for `NS(=O)(=O)Cc1ccccc1F` was 0.891. The value for `O=C(NC1CC1)c1n[nH]c(=O)c2ccccc12` was 1.08.

For the compound `NCCc1c(C(=O)O)[nH]c2ccc(Br)cc12`, the relative growth came out at 0.922.

On to `O=C(/C=N/O)Nc1ccccc1C(=O)O`, for which the relative growth was 0.906. `CC1(C)CC2C1CCC1(C)OC1CCC2(C)O` (stereo unspecified) had a relative growth of 1.05. The same measure for `COc1ccc([C@H]([C@H](Cc2ccccc2)OC(C)=O)N(C/C=C/[C@@H](OC(C)=O)c2ccccc2)[C@@H](Cc2ccccc2)C(OC)OC)cc1`: 1.27; for `CC1=CCc2c(cc3oc(C)cc(=O)c3c2O)OC1`: 0.972; for `N#CC1C(=O)NC(=O)N=C1Nc1ccccc1` (stereo unspecified): 1.09.

For `COc1ccc([C@@H]([C@H](Cc2ccccc2)OC(C)=O)N2C[C@H](CC(=O)N(C)C)[C@@H]3C(=NO[C@H]3c3ccccc3)[C@@H]2Cc2ccccc2)cc1`, the relative growth amounted to 1.06. In the case of `Nc1ncn(C[C@@H](O)CO)c2nc(Br)nc1-2`, the relative growth was 0.94. The same measure for `O=C(CN1CCOCC1)NCC[C@H]1CC[C@@H](NC(=O)Cc2ccccn2)[C@H](CO)O1`: 1.15; for `COc1ccc(NC(=O)N(C)C[C@H]2Oc3ncc(C#CCN(C)C)cc3C(=O)N([C@@H](C)CO)C[C@H]2C)cc1`: 1.09; for `Cl.N=C(N)NCCCC(N)C(=O)O` (stereo unspecified): 1.07.

In the case of `CCN(CC)CCNC(=O)c1ccc(N)cc1.Cl`, the relative growth is 1.22. `C=CCOC(=O)[C@@H]1[C@H]2C(=O)O[C@H](c3ccccc3)[C@H](c3ccccc3)N2[C@H](c2ccc(OCCOC(=O)[C@@H]3C[C@@H]4C(=O)N[C@@H](Cc5ccccc5)C(=O)N4[C@@H]3c3ccc(O)cc3)cc2)[C@@]12C(=O)Nc1ccccc12` displayed a relative growth of 0.962. Regarding `COc1nn(C)cc1C(=O)NC1=NCCS1`, the relative growth worked out at 0.808. Consider `CC(C)NC(=O)NCC[C@H]1CC[C@H](NC(=O)CN(C)C)[C@H](CO)O1`, for which the relative growth was 1.04. The value for `Cc1ccc(CNS(=O)(=O)N(C)C)cc1` was 0.912; that for `CO[C@H](CN(C)C(=O)c1ccc2c(c1)OCO2)[C@@H](C)CN([C@@H](C)CO)S(=O)(=O)c1ccc(C)cc1` was 1.19; that for `O=C(C[C@H]1CC[C@@H]2[C@H](COC[C@@H](O)CN2C(=O)c2ccccc2F)O1)N1CCN(c2ccccc2)CC1` was 0.78. For `Cc1ccccc1-n1cc[nH]c1=S`, the relative growth came to 0.989. Take `O=C(C[C@H]1CC[C@H](NC(=O)CN2CCOCC2)[C@@H](CO)O1)NCCc1ccncc1`: the relative growth was 1.02.

`O=C(O)c1cccnc1` returned a relative growth of 1.02. Turning to `NC(=O)NCC#Cc1ccc2c(c1)[C@]1(C(=O)N2)[C@H](C(=O)Nc2nc3ccccc3s2)[C@H]2C(=O)O[C@H](c3ccccc3)[C@H](c3ccccc3)N2[C@@H]1c1ccccc1OCCO`, the relative growth was found to be 0.963. In the case of `C[C@H]1C[C@@H]2[C@@H](C[C@@H]1C)N[C@@H]1C(=O)NC(=O)N[C@H]1N2C[C@H](O)[C@H](O)[C@H](O)CO`, the relative growth came out at 0.953. The same measure for `CC1=CC(C)(C)N(C(=O)/C=C/c2ccccc2)c2ccc(C)cc21`: 1.37; for `Cc1cccc(N(C)C(=S)Oc2ccc3ccccc3c2)c1`: 1.16; for `Cn1cnc(S(=O)(=O)N[C@H]2C=C[C@H](CC(=O)Nc3ccccc3)O[C@@H]2CO)c1`: 1.05. The same measure for `COCCNCCn1cnc2c1c(=O)[nH]c(=O)n2C`: 1.18. Compound `Cl.Nc1c2c(nc3ccccc13)CCCC2` showed a relative growth of 0.76. The same measure for `CN1CCN(C(=O)C[C@@H]2C=C[C@@H](NS(=O)(=O)c3cccc(F)c3)[C@@H](CO)O2)CC1`: 0.984; for `COc1ccc(-c2ccc3cc(C(=O)O)ccc3c2)cc1C12CC3CC(CC(C3)C1)C2`: 0.864. The value for `CCN1CCCC1CNC(=O)c1cc(S(N)(=O)=O)ccc1OC` (stereo unspecified) was 0.912; that for `c1cc(CNCCN2CCOCC2)ccn1` was 1.01; that for `O=C(NC(=O)N1CCOCC1)c1ccc(S(=O)(=O)N2CCOCC2)cc1` was 0.932. `CC[C@H]1CN(C)N1C(=O)[C@H]1CCCO1` had a relative growth of 0.959. For the compound `CC(C)[Si](C#C[Si](C(C)C)(C(C)C)C(C)C)(O[C@H](C)c1cn([C@H](C)c2ccccc2)nn1)C(C)C`, the relative growth turned out to be 0.901.

Consider `CC(C)CC#Cc1ccc2c(c1)O[C@H](CN(C)S(=O)(=O)c1cccc(F)c1)[C@H](C)CN([C@H](C)CO)S2(=O)=O`, for which the relative growth came to 1.45. The compound `O=C(CCC1CCCCC1)NCCC12CC3CC(CC(C3)C1)C2` showed a relative growth of 1.12. The same measure for `CC(C)=CCc1c(O)cc2oc(C)cc(=O)c2c1O`: 0.832; for `COCC(=O)Nc1ccc2c(c1)C(=O)N(C)C[C@H](OC)[C@H](C)CN(C(=O)Cc1cccnc1)[C@H](C)CO2`: 0.975. The value for `COc1cccc(S(=O)(=O)N[C@H]2C=C[C@H](CC(=O)NC3CCC3)O[C@H]2CO)c1` was 1.02; that for `CCc1ccc(Nc2c3c(nc4ccccc24)CCCC3)cc1` was 0.521; that for `CN1C(C(=O)Nc2ccccn2)=C(O)c2sc(Cl)cc2S1(=O)=O` was 1.11. The same measure for `NC1(CC(=O)O)CCN(Cc2ccccc2)CC1`: 0.945; for `O=C(C[C@@H]1C=C[C@H](NS(=O)(=O)c2ccc(F)cc2)[C@H](CO)O1)NCCN1CCCCC1`: 0.945; for `COc1ccc(-c2cc(=O)c3c(OC)c(OC)c(OC)c(OC)c3o2)cc1`: 1.25. As to `CC(=O)OCC1=C[C@@H]2OC(=O)C3=CO[C@@H](O[C@H]4O[C@H](CO)[C@@H](O)[C@H](O)[C@H]4O)[C@H]1[C@@H]32`, the relative growth was 1.12.

`O=C(C[C@H]1CC[C@H]2[C@@H](COC[C@@H](O)CN2C(=O)c2ccncc2)O1)NC1CCC1` gave a relative growth of 0.9.

In turn, `CCCCNc1ccc(C(=O)OCCN(C)C)cc1.Cl` yielded a relative growth of 0.807. Consider `O=C(C[C@H]1CC[C@H]2[C@@H](COC[C@@H](O)CN2S(=O)(=O)c2ccccc2)O1)N1CCOCC1`, for which the relative growth was determined as 0.993. The same measure for `CN(C)CCCCNC(=O)[C@@H]1C[C@@H]2C(=O)N[C@@H](CCCCN(C)C)C(=O)N2[C@@H]1c1cccc(OCCO)c1`: 0.976. The value for `CN1C[C@H](O)COC[C@H]2O[C@@H](CC(=O)N3CCN(c4ccccc4)CC3)CC[C@@H]21` was 1.12. `Oc1cc(O)c2cc(O)c(-c3ccc(O)c(O)c3)[o+]c2c1.[Cl-]` returned a relative growth of 0.927. The same measure for `CS(C)(=O)=O`: 1.08; for `NC[C@H]1CCN(c2ccc(Oc3ccccc3)cc2)C1`: 0.978; for `C#C[C@]1(O)CC[C@H]2[C@@H]3CCC4=Cc5oncc5C[C@]4(C)[C@H]3CC[C@@]21C`: 1.12. For `COC(=O)CCCCCCC(=O)NN`, the relative growth is 0.965. The same measure for `C[C@H](CO)N1C[C@H](C)[C@H](CN(C)C(=O)C2CCCCC2)Oc2cc(Br)ccc2S1(=O)=O`: 0.86; for `CC(C)=CCCC(C)[C@@H]1CC[C@]2(C)C3=C(CC[C@@]12C)C1(C)CC[C@H](O)C(C)(C)C1CC3` (stereo partly specified): 1.15; for `O=C(C[C@@H]1C=C[C@H](NC(=O)Cc2ccccn2)[C@@H](CO)O1)NCCc1ccncc1`: 1.15. The value for `COC(=O)C1=CO[C@@H](O[C@@H]2O[C@H](CO)[C@@H](O)[C@H](O)[C@H]2O)[C@H]2[C@@H]1[C@H](OC(C)=O)C[C@]2(C)OC(C)=O` was 0.992. The value for `O=C1CCC(=O)N1Nc1ccccn1` was 0.954; that for `COc1cc(OC)c(C(=O)CCCN2CCCC2)c(OC)c1.Cl` was 0.957; that for `CCOC(=O)CC(=O)c1ccn(C)n1` was 0.917. Take `O=C(Nc1ccc([N+](=O)[O-])cc1Cl)c1cc(Cl)ccc1O`: the relative growth was 1.06. In turn, `O=c1cc[nH]c(=O)[nH]1` returned a relative growth of 1.2. In turn, `CC(C)C#Cc1ccc2c(c1)O[C@@H](CN(C)C(=O)Cc1ccccn1)[C@H](C)CN([C@@H](C)CO)S2(=O)=O` gave a relative growth of 0.927.

Turning to `Cc1cc(O)c(C(=O)N[C@@H](C(=O)N[C@@H]2C(=O)N3C(C(=O)O)=C(CSc4nnnn4C)CSC23)c2ccc(O)cc2)cn1` (stereo partly specified), the relative growth turned out to be 0.136. The same measure for `CN(C)CCCNC(=O)C[C@H]1C=C[C@H](NS(=O)(=O)c2ccccc2)[C@H](CO)O1`: 1.13.

`O=S1(=O)C[C@H](O)[C@@H](N2CCN(CCO)CC2)C1` had a relative growth of 1.02.

`COc1nn(C)cc1C(=O)Nc1ccon1` had a relative growth of 0.958.
